The source of these data is PubChem BioAssay AID463111 (Johns Hopkins Ion Channel Center, 2010).

Only a part is listed here, and it is no random draw. Some results for these compounds are left out of this collection, so the calls shown say nothing about other tests. The source made the active and inactive calls.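 Rule for the calls: active = B-score of the integrated calcium signal more than 4 SD below the library mean, with starting fluorescence not abnormally high; inactive = the rest.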

A short description of this assay: RGS4 potentiators or activators, primary screen, cell-based, HEK293 M3R inducible RGS4, calcium flux (AID 463111).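 For B-score: negative B-score means reduced calcium response which marks RGS4 activation or potentiation.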 As to conditions: HEK293 M3R/inducible RGS4, carbachol calcium flux Fluo4, at 10 µM; hits give low values. An outline of the steps:
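test system = M3R-expressing HEK293 line, RGS4 induced by doxycycline | probe or stimulus = carbachol at ECmax as muscarinic agonist stimulus | timing = dye loading 30 min 37 °C, buffer rest 30 min RT | signal = calcium dye Fluo4 fluorescence | evaluation = B score from integrated fluorescence ratio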
For the compound `COc1ccc(C(=O)NCC2(N(C)C)CCCCC2)cc1`, the result was inactive.
On the same count and under the same terms, in the case of `Cc1cc(C(=O)NCC2(N3CCCCC3)CCCCC2)ccc1[N+](=O)[O-]` it was “inactive”.
Turning to `CCN1CCCC(OC(=O)C2(O)c3ccccc3C=Cc3ccccc32)C1` (centres undefined), the result was inactive.
In the case of `O=C(NCC1(N2CCCCC2)CCCCC1)c1cccc(Br)c1`, the outcome was inactive.
As to `C=CCN1CCN(CCOC(=O)C(O)(c2ccccc2)c2ccccc2)CC1`, the B-score was active: -10.3.
Turning to `O=C(NCC1(N2CCCCC2)CCCCC1)c1cc(F)c(F)cc1Cl`, the result was inactive.
Turning to `Cc1ccccc1C(=O)NCC1(N2CCCCC2)CCCCC1`, the outcome was inactive.
Consider `CN(C)C1CCCC1OC(=O)C(O)(c1ccccc1)c1ccccc1` (centres undefined), for which the B-score is active: -8.16.
Consider `CN(C)c1ccc(C(=O)NCC2(N(C)C)CCCCC2)cc1`, for which the result was inactive.
Same read-out and setting: in the case of `Cc1ccc(C(=O)NCC2(N3CCCCC3)CCCCC2)cc1` it was “inactive”.
Regarding `CCN(CC)CC(C)C(C)OC(=O)C(O)(c1ccccc1)c1ccccc1` (centres undefined), the B-score is active: -9.15.
Take `COc1cc(SC)ccc1C(=O)NCC1(N(C)C)CCCCC1`: the result was inactive.
Take `CC(C)N1C(=O)CC2(CCN(CCOC(=O)C(O)(c3ccccc3)c3ccccc3)CC2)C1=O`: the result was inactive.
For the compound `CN1[C@@H]2CC[C@H]1CC(OC(=O)C(O)(c1ccccc1)c1ccccc1)C2` (some centres undefined), the B-score was active: -7.31.
For `O=C(NCC1(N2CCCCC2)CCCCC1)c1cc([N+](=O)[O-])ccc1Cl`, the outcome was inactive.
Regarding `CC(C)Oc1ccc(C(=O)NCC2(N(C)C)CCCCC2)cc1`, the outcome was inactive.
The same measure, in the same setting: under `CN(C)c1cccc(C(=O)NCC2(N(C)C)CCCCC2)c1` stands “inactive”.
For `COc1ccc(Br)c(C(=O)NCC2(N3CCCCC3)CCCCC2)c1`, the result was inactive.
Turning to `O=C(OC1CN2CCC1CC2)C(CO)(c1ccccc1)c1ccccc1` (centres undefined), the B-score was active: -7.67.
For `O=C(NCC1(N2CCCCC2)CCCCC1)c1cccc(Cl)c1`, the outcome was inactive.
On the same count and under the same terms, in the case of `COc1cccc(C(=O)NCC2(N3CCCCC3)CCCCC2)c1` it was “inactive”.
`COc1ccc(Cl)cc1C(=O)NCC1(N(C)C)CCCCC1`: the result was inactive.
Turning to `COc1cc(C(=O)NCC2(N(C)C)CCCCC2)c([N+](=O)[O-])cc1OC`, the result was inactive.
Same read-out and setting: in the case of `CN(C)C1(CNC(=O)c2ccc(Br)cc2)CCCCC1` it was “inactive”.
